Legend:
MEF (C57BL/6) = assay: MTT cell viability assay, MEF (C57BL/6); format: cell-based; conditions: ratio of EC50 MEF to EC50 MCF-7
Experimental: (§1) Cells were then treated with compound at various concentrations in 0.2 mL media. After the 72-hour incubation period, cells were washed in PBS (3×100 μL), and 10 μL MTT reagent was added with 100 μL fresh media. Cells were then incubated for 4 hr in a humidified chamber at 37° C. with 5% CO2. Insoluble formazan crystals were solubilized by addition of 0.1 mL detergent solution (4 hr at room temp., dark). Resulting colored solutions were then quantified at an absorbance of 570 nm.

IMR-90 = assay: Cell viability, IMR-90; format: cell-based; conditions: ratio of EC50 IMR-90 to EC50 MCF-7
Experimental: as §1

SMILES | SI MEF/MCF-7 (MEF (C57BL/6)) | SI IMR-90/MCF-7 (IMR-90)
CCn1c(=O)/c(=C2\Sc3cc(Br)ccc3N2C)s/c1=C\c1scc[n+]1Cc1ccc(C(F)(F)F)o1.[Cl-] [JG-294] | 35 | 98
CCc1ccc2c(c1)S/C(=c1/s/c(=C\c3scc[n+]3Cc3ccccc3C(=O)OC)n(CC)c1=O)N2C.[Cl-] [JG-345] | 20 | 65

Reference: patent publication US10221171B2, “Oxathiazole thiazolium Hsp 70 inhibitors” (THE REGENTS OF THE UNIVERSITY OF CALIFORNIA, priority 2015, dated 2019)
